Measurements taken from ChEMBL document CHEMBL4507279, “Data for DCP probe BI-9627” (2021).

Chains of the proteins cited; added tags and fusions are not shown. Lines headed by an entry give the natural chain unless they say otherwise; changes in a name come on top.
UniProt P49651: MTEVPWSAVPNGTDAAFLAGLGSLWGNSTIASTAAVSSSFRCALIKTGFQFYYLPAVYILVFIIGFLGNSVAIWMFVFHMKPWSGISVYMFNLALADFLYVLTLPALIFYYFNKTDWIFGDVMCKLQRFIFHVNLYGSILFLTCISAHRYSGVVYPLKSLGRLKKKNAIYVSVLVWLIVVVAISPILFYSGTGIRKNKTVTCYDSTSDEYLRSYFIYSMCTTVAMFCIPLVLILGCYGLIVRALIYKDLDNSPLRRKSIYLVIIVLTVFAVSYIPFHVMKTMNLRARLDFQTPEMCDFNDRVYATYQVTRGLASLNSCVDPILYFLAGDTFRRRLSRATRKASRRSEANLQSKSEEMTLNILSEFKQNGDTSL
UniProt P27448: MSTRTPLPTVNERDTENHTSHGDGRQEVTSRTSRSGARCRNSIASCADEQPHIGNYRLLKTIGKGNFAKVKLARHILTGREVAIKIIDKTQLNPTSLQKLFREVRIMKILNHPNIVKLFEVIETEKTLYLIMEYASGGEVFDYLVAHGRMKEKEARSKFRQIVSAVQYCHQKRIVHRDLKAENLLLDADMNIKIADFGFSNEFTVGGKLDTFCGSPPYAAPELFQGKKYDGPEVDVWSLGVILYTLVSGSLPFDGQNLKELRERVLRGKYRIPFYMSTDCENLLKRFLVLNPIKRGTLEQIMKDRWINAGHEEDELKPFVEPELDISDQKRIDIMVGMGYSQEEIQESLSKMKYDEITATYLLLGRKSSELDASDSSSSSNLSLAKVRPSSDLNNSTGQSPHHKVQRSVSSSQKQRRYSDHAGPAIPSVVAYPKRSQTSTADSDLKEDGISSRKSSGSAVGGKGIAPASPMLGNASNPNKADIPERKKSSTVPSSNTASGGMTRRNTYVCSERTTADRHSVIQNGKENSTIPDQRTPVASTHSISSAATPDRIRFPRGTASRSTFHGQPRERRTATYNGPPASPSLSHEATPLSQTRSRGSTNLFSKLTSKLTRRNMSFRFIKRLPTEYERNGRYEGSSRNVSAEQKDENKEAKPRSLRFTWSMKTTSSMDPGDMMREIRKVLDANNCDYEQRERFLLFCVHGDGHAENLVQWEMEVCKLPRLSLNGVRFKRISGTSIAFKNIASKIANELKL
UniProt Q15759, whole entry: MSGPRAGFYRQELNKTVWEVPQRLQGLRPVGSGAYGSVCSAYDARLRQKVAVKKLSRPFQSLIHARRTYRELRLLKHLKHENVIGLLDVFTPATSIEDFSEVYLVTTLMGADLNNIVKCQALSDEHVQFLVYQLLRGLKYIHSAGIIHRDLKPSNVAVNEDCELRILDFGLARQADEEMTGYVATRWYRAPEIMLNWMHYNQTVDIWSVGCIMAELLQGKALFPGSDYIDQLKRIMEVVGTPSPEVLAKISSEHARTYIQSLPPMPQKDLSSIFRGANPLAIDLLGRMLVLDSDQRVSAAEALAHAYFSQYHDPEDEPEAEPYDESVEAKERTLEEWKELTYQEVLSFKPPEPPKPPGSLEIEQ
Proto-oncogene tyrosine-protein kinase receptor Ret (Homo sapiens), P07949, UniProt P07949, whole entry M918T: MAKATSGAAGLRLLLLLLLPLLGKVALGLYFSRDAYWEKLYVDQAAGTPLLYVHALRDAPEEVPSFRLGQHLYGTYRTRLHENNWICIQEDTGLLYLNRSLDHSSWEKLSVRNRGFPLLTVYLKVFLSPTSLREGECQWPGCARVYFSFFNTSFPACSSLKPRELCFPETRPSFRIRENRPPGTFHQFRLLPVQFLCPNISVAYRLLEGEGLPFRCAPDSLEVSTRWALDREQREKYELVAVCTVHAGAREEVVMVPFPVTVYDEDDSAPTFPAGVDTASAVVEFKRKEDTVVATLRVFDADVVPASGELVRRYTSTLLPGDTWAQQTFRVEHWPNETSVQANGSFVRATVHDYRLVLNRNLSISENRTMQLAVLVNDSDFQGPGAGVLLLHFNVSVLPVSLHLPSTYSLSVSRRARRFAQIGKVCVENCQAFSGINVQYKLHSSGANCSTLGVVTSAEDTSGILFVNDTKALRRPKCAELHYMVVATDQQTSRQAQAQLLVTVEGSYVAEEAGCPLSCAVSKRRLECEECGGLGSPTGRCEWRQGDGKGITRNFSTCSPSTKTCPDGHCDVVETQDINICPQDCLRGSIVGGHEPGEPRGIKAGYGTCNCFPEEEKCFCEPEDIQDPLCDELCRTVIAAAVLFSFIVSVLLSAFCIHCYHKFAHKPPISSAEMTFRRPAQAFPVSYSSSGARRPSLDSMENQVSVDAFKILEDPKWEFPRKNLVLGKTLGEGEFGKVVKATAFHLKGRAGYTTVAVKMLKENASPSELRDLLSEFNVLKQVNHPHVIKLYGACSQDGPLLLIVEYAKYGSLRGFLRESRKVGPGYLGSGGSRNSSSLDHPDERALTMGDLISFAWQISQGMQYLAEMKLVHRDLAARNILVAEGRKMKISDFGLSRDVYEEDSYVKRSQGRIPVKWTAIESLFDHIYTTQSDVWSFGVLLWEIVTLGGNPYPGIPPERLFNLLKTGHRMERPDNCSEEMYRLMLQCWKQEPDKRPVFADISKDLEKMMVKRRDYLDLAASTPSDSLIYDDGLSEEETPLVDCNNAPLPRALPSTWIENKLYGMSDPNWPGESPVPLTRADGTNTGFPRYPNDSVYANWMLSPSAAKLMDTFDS

Experiments:
[1] = target: Epidermal growth factor receptor (Homo sapiens) (UniProt P00533); assay: EGF/HU Eurofins-Panlabs selectivity data (BI); conditions: Compound concentration 10.0 uM
[2] = target: P2Y purinoceptor 1 (Rattus norvegicus) (UniProt P49651); assay: P2Y/RAT Eurofins-Panlabs selectivity data (BI); conditions: Compound concentration 10.0 uM
[3] = target: MAP/microtubule affinity-regulating kinase 3 (Homo sapiens) (UniProt P27448); conditions: Compound concentration 1000.0 nM
[4] = target: Mitogen-activated protein kinase 11 (Homo sapiens) (UniProt Q15759); conditions: Compound concentration 1000.0 nM
[5] = test system: Proto-oncogene tyrosine-protein kinase receptor Ret (Homo sapiens), P07949 [M918T]; conditions: Compound concentration 1000.0 nM
[6] = test system: imidazoline I2 binding site (Rattus norvegicus); assay: I2/CENTR/R Eurofins-Panlabs selectivity data (BI); conditions: Compound concentration 10.0 uM
[7] = test system: sodium channel alpha subunit, site 2 (Rattus norvegicus); assay: NA+/SITE2/RA Eurofins-Panlabs selectivity data (BI); conditions: Compound concentration 10.0 uM

Measured: residual activity

CC(=O)N1CCC(c2ccc(C(=O)NC(=N)N)cc2C(F)(F)F)CC1 [BI 9627]
inactive: [1] 88% | [2] 88% | [3] 88% | [4] 88% | [5] 88% | [6] 88% | [7] 60%
